# Only a part of the results on these compounds is given; other tests are left out.
# Tests used:
# Balb/C mice [1] = test: learning and replicating the spatial skill after spatial reversal (relearning) in the Morris water maze; settings: for Replication: Time in the platform quadrant / Training: Number of effective attempts, 1 day / Training: Number of effective attempts, 2 day / Training: Time of searching for the platform, 1 day / Training: Time of searching for the platform, 2 day: after spatial reversal, over 6 days
# Experimental: (§1) A method developed in 2007 and described in [7] was used to evaluate the effect of […] on the symptoms of autism spectrum disorders. The effect of the tested compounds on the spatial learning process and the ability to make a new spatial move during retraining in a water maze were examined.
# (§2) The test was conducted in the Morris water maze. The mice were first taught the skill of locating a platform in a water maze and replicating this spatial skill. The animals were later confronted with a new location of the platform and thus, spatial “reversal” was created. During relearning (relocation of the platform in the water maze) the animals had to make a new decision and make a correct spatial move.
# The day after replicating the spatial skill, the platform is moved to the area of the pool diagonally opposite its previous location. The platform has to be immersed in the water at the same 0.5 cm depth below the water level as in the previous days of training. The training (2 days) and replication procedures are repeated according to the scheme described earlier.
# Balb/C mice [2] = test: olfactory habituation/dishabituation test
# Experimental: Autism impairs the ability to adequately react to social and nonsocial olfactory stimuli. Experimental models of said disorders take into consideration the established fact that all interactions between mice, first and foremost, occur via their olfactory signals. Thus, the olfactory habituation/dishabituation in the experiment is examined by repeatedly exposing the mice to nonsocial and social odors in the habituation/dishabituation test.
# The experiment was conducted on male Balb/C mice, 5-7-weeks old, weighing 13-15 g. C57Bl/6 mice of the same gender as the tested animals were used as social stimuli. Outbred male mice, 2-3 month old, weighing 24-30 g were used as an additional control.
# The substances were administered to the mice once, intraperitoneally, at 0.1 ml per 10 g body weight, 40 min. prior to the experiment.
# The olfactory habituation/dishabituation test was used to determine the animals' ability to respond to social and nonsocial olfactory stimuli. The test was conducted according to method proposed in 2010.
# Prior to testing, the mice were placed separately into a cage with clean wood shavings for 30 min. A 15-cm long cotton swab was moistened with water and extended through the cage cover to the height of 5 cm above the wood shavings on the bottom of the cage. Each odor was introduced three times:
# 3 introductions—nonsocial stimulus: diluted flower smell (lemon extract diluted in a 1:100 ratio (water);
# 3 introductions—social stimulus (odor from an “unfamiliar” murine cage with soiled wood shavings).
# For the social stimulus, a cotton swab that had been moistened with water was used to swab the bottom of “another” soiled murine cage, zigzagging through the cage to cover every corner and the center of the cage. The “other” cage should have housed at least 3 C57Bl/6 mice of the same gender as the tested mice. The wood shavings could not be replaced for at least 3 days.
# The observation was conducted for a period of 2 min. The following parameters were recorded:
# number of head (nose) lifts and turns toward the swab with an odor located no farther than 2 cm away;
# number of approaches to the swab;
# number of sniffs of the swab;
# number of climbs onto the swab;
# number of chewings of the swab.
# After 2 min., the cotton swab was replaced with another, which was also introduced for 2 min.
# [3] = doses exceeding the recommended therapeutic dose of glycine 20-fold; cited from earlier work
# Balb/C mice [4] = test: learning and replicating the spatial skill in the Morris water maze; settings: for Replication: Time in the platform quadrant / Training: Number of effective attempts, 1 day / Training: Number of effective attempts, 2 day / Training: Time of searching for the platform, 1 day / Training: Time of searching for the platform, 2 day: over 6 days
# Experimental: The experiment was conducted on male Balb/C mice, 5-7-weeks old, weighing 13-15 g. The source of mice and holding conditions were identical to those in Example 1.
# In Example 2, the tested substances were used the same way as in Example 1.
# The substances were administered to the mice at 0.1 ml per 10 kg of body weight over 6 days. The control Balb/C animals and outbred mice were intraperitoneally administered physiological solution at 0.1 ml per 10 kg of body weight 40 min. prior to the experiment.
# as §1, §2
# The Morris maze is a large circular pool, 122 cm in diameter, 25 cm deep, filled with water at 25-28° C. A round platform 12 cm in diameter was placed into the pool. The center of the platform was positioned 30 cm away from the edge of the pool.
# A platform is located 0.5 cm above the water. A mouse is placed on the platform for 20 sec. The mouse is then placed in the water at the opposite end of the pool and allowed 60 sec. to find the platform, climb it, and stay there for 20 sec. The process is repeated by placing the mouse in the water in the location of the pool different from the location of the first attempt. Each animal is allowed 4 attempts to find the platform.
# If the animal is unable to find the platform all by itself in 60 sec., the researcher helps it to find its way to the platform and climb it.
# During the next 2 days, the platform is placed 0.5 cm below the water level. The animals are allowed 4 attempts per day to find the platform in 60 sec. The time gap between the attempts is 20 sec., wherein they stay on the platform. Every day, before their first attempt, the animals are placed on the platform for 20 sec. The time between the moment the animal is placed in the water and the moment the animal climbs on the platform is recorded, as well as the number of effective attempts to find the platform. The animals are placed in the water in three different locations in the part of the pool opposite the platform.
# 24 hrs. post the second day of training, the replication of the spatial skill is evaluated: the platform is removed and the animals are placed in the pool for 60 sec. once; the time length of the animal's stay in the quadrant wherein the platform had been located during the learning stage is recorded. Said time is an indicator of learning efficiency and replication of the spatial skill.
# [5] = nanolycine at both doses (1- and 10-mg/kg)
# [6] = 10-mg/kg, second day of training
substance,measurement,setting,value
glycine immobilized on detonation nanodiamond particles 2-10 nm in size,"increase of the time the animals spent in the ""correct"" quadrant after spatial reversal",Balb/C mice [1]; 1-mg/kg,3.4 times
same,"number of effective attempts to find the platform as compared to the control animals, first day of retraining",Balb/C mice [1]; 1-mg/kg,2.4 times
same,effect of the preparation during retraining (second vs first day),Balb/C mice [1]; 10-mg/kg,positive effect
same,impact on the replication of the newly acquired skill,"Balb/C mice [1]; Triftazin 0.5 mg/kg, glycine 10-mg/kg, nanolycine 10-mg/kg",did not make any impact
same,Replication: Time in the platform quadrant,Balb/C mice [1]; 1-mg/kg,11.2 ± 4.5 s
same,"Training: Number of effective attempts, 1 day",Balb/C mice [1]; 1-mg/kg,1.2 ± 0.4 units
same,"Training: Number of effective attempts, 2 day",Balb/C mice [1]; 1-mg/kg,2.2 ± 0.6 units
same,"Training: Time of searching for the platform, 1 day",Balb/C mice [1]; 1-mg/kg,49.4 ± 3.7 s
same,"Training: Time of searching for the platform, 2 day",Balb/C mice [1]; 1-mg/kg,48.4 ± 3.9 s
same,Replication: Time in the platform quadrant,Balb/C mice [1]; 10-mg/kg,14.1 ± 4.6 s
same,"Training: Number of effective attempts, 1 day",Balb/C mice [1]; 10-mg/kg,1.0 ± 0.5 units
same,"Training: Number of effective attempts, 2 day",Balb/C mice [1]; 10-mg/kg,1.8 ± 0.5 units
same,"Training: Time of searching for the platform, 1 day",Balb/C mice [1]; 10-mg/kg,54.4 ± 3.1 s
same,"Training: Time of searching for the platform, 2 day",Balb/C mice [1]; 10-mg/kg,45.9 ± 4.5 s
same,difference from the control group in both recorded parameters on the first and second day of retraining,"Balb/C mice [1]; nanolycine 1-mg/kg, nanodiamond, glycine, Triftazin",did not show any statistically significant difference
same,"ability to recognize the ""C57Bl/6 mice odor"" stimulus at the first exposure, higher than Balb/C mice","Balb/C mice [2]; 1-mg/kg, p<0.05",2.1 times
same,"response to the third ""lemon"" odor exposure lower than response to the second exposure",Balb/C mice [2]; 10-mg/kg,68%
same,reduced murine response after repeated exposure vs first exposure,"Balb/C mice [2]; ""C57Bl/6 mice odor"" stimulus, 1-mg/kg",61.2%
same,reduced murine response after repeated exposure vs first exposure,"Balb/C mice [2]; ""C57Bl/6 mice"" odor, 10-mg/kg",65.4%
same,reduced murine response after repeated exposure vs first exposure,"Balb/C mice [2]; ""water"" stimulus, 1-mg/kg",32.5%
same,reduced murine response after repeated (second) exposure vs first exposure,"Balb/C mice [2]; ""water"" stimulus, 10-mg/kg",43.4%
same,Response to the olfactory stimulus of Balb/C mice,"Balb/C mice [2]; C57B1/6 mice odor, exposure 1, 1-mg/kg i.p. once",14.7 ± 1.6$ units
same,Response to the olfactory stimulus of Balb/C mice,"Balb/C mice [2]; C57B1/6 mice odor, exposure 1, 10-mg/kg i.p. once",7.8 ± 0.8 units
same,Response to the olfactory stimulus of Balb/C mice,"Balb/C mice [2]; C57B1/6 mice odor, exposure 2, 1-mg/kg i.p. once",5.7 ± 1.2 units
same,Response to the olfactory stimulus of Balb/C mice,"Balb/C mice [2]; C57B1/6 mice odor, exposure 2, 10-mg/kg i.p. once",2.7 ± 0.7 units
same,Response to the olfactory stimulus of Balb/C mice,"Balb/C mice [2]; C57B1/6 mice odor, exposure 3, 1-mg/kg i.p. once",3.3 ± 0.5 units
same,Response to the olfactory stimulus of Balb/C mice,"Balb/C mice [2]; C57B1/6 mice odor, exposure 3, 10-mg/kg i.p. once",1.5 ± 0.3 units
same,Response to the olfactory stimulus of Balb/C mice,"Balb/C mice [2]; Lemon, exposure 1, 1-mg/kg i.p. once",2.0 ± 0.4 units
same,Response to the olfactory stimulus of Balb/C mice,"Balb/C mice [2]; Lemon, exposure 1, 10-mg/kg i.p. once",2.5 ± 0.6 units
same,Response to the olfactory stimulus of Balb/C mice,"Balb/C mice [2]; Lemon, exposure 2, 1-mg/kg i.p. once",1.3 ± 0.4 units
same,Response to the olfactory stimulus of Balb/C mice,"Balb/C mice [2]; Lemon, exposure 2, 10-mg/kg i.p. once",2.5 ± 0.7 units
same,Response to the olfactory stimulus of Balb/C mice,"Balb/C mice [2]; Lemon, exposure 3, 1-mg/kg i.p. once",1.3 ± 0.4 units
same,Response to the olfactory stimulus of Balb/C mice,"Balb/C mice [2]; Lemon, exposure 3, 10-mg/kg i.p. once",0.8 ± 0.2 units
same,Response to the olfactory stimulus of Balb/C mice,"Balb/C mice [2]; Water, exposure 1, 1-mg/kg i.p. once",7.7 ± 0.8 units
same,Response to the olfactory stimulus of Balb/C mice,"Balb/C mice [2]; Water, exposure 1, 10-mg/kg i.p. once",8.3 ± 0.8 units
same,Response to the olfactory stimulus of Balb/C mice,"Balb/C mice [2]; Water, exposure 2, 1-mg/kg i.p. once",5.2 ± 0.9 units
same,Response to the olfactory stimulus of Balb/C mice,"Balb/C mice [2]; Water, exposure 2, 10-mg/kg i.p. once",4.7 ± 0.8 units
same,Response to the olfactory stimulus of Balb/C mice,"Balb/C mice [2]; Water, exposure 3, 1-mg/kg i.p. once",3.3 ± 0.4 units
same,Response to the olfactory stimulus of Balb/C mice,"Balb/C mice [2]; Water, exposure 3, 10-mg/kg i.p. once",3.8 ± 0.6 units
same,habituation to olfactory stimuli as compared to the control Balb/C animals,"Balb/C mice [2]; nanolycine 1- and 10-mg/kg, nanodiamond, glycine 10-mg/kg, Triftazin 0.5 mg/kg",faster
same,effectiveness compared with Triftazin (0.5 mg/kg),Balb/C mice [2]; [5],as effective as
same,effectiveness compared with glycine (10-mg/kg),Balb/C mice [2]; [5],more effective than
same,side or toxic effects,[3],did not cause any side or toxic effects
same,Replication: Time in the platform quadrant,Balb/C mice [4]; 1-mg/kg,30.5 ± 4.8 s
same,"Training: Number of effective attempts, 1 day",Balb/C mice [4]; 1-mg/kg,2.2 ± 0.6 units
same,"Training: Number of effective attempts, 2 day",Balb/C mice [4]; 1-mg/kg,2.7 ± 0.7 units
same,"Training: Time of searching for the platform, 1 day",Balb/C mice [4]; 1-mg/kg,42.0 ± 6.5 s
same,"Training: Time of searching for the platform, 2 day",Balb/C mice [4]; 1-mg/kg,43.2 ± 4.4 s
same,increase of the number of effective attempts to find the platform vs control group of linear mice,"Balb/C mice [4]; 1-mg/kg, second day of training",4.4 times
same,reduction in the time that took to find the platform vs control,"Balb/C mice [4]; 1-mg/kg, trend level p<0.1",14%
same,Replication: Time in the platform quadrant,Balb/C mice [4]; 10-mg/kg,12.5 ± 3.4 s
same,"Training: Number of effective attempts, 1 day",Balb/C mice [4]; 10-mg/kg,1.3 ± 0.3 units
same,"Training: Number of effective attempts, 2 day",Balb/C mice [4]; 10-mg/kg,2.3 ± 0.5 units
same,"Training: Time of searching for the platform, 1 day",Balb/C mice [4]; 10-mg/kg,53.5 ± 2.5 s
same,"Training: Time of searching for the platform, 2 day",Balb/C mice [4]; 10-mg/kg,42.3 ± 5.7 s
same,larger number of effective attempts as compared to the control group,Balb/C mice [4]; [6],3.6 times
same,less time on the search for the platform as compared to the control group,Balb/C mice [4]; [6],18.5%
same,difference from the linear (control Balb/C) mice on the first day of training,"Balb/C mice [4]; nanolycine 1- and 10-mg/kg, nanodiamond, glycine, Triftazin",didn't show any statistically significant difference
